The results in this text go back to patent US11116757B2 (priority 2015, dated 2021).

By UniProt entry, the sequences of proteins in these tests, tags left out. Residues count along the entry.
UniProt Q96GG9, 60-248 limits assumed: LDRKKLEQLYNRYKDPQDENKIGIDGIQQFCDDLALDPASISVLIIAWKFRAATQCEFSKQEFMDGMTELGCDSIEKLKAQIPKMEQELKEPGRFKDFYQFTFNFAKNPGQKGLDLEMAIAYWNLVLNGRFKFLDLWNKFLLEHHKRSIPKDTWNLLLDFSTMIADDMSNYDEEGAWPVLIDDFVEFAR

The target in the test is DCN1-UBC12 interaction (Homo sapiens (Human), UniProt Q96GG9). The test is described as follows: TR-FRET assay for DCN1 binding to UBC12NAc peptide. The conditions noted are these: read-out: TR-FRET IC50.

In the case of `CCCN1CCC(NC(=O)Nc2ccc([N+](=O)[O-])cc2)CC1`, the IC50 (in general, the point on the concentration scale where inhibition reaches its midpoint) is more than 67.6 µM.
